According to PMC11106956, “Population pharmacokinetics of primaquine and its metabolites in African males” (Malaria Journal, 2024):

Key:
haemoglobin levels = assay: Linear regression of pharmacokinetic parameters against change in haemoglobin; haemoglobin follow-up to 28 days; format: in vivo, human (African males, Mali); settings: slope (95% CI)
[1] = single oral PQ 0.40-0.50 mg/kg
methaemoglobin levels = assay: Linear regression of pharmacokinetic parameters against change in methaemoglobin; format: in vivo, human (African males, Mali); settings: slope (95% CI)
[2] = G6PD-deficient individuals (n = 18)
[3] = G6PD-normal individuals (n = 10)
[4] = typical individual 62.5 kg, metabolites dosed as PQ molar dose 1:1

Primaquine carbamoyl-glucuronide
Correlation (regression slope) of AUC24 with change in haemoglobin (haemoglobin levels; [2]): 3.91 (95% CI: -82.1 to 89.9) p = 0.924 % HB change per 1 ng·hr/mL
Correlation (regression slope) of CMAX with change in haemoglobin (haemoglobin levels; [2]): 73.3 (95% CI: -90.1 to 237) p = 0.356 % HB change per 1 ng/mL
Correlation (regression slope) of CMAX with change in haemoglobin (haemoglobin levels; [3]): -0.377 (95% CI: -127 to 127) p = 0.995 % HB change per 1 ng/mL
Half-life (terminal elimination) ([1]; median (range) in Table 3, n = 28): 17.5 (11.1–28.0) h
AUC24, area under the concentration-time curve up to 24 h ([1]; median (range), n = 28): 1240 (242–3100) h × ng/mL
CMAX, maximum concentration ([1]; median (range), n = 28): 1550 (246–7320) ng/mL
TMAX, time to maximum concentration ([1]; median (range), n = 28): 1.61 (0.572–1.78) h
MTT, absorption mean transit time, population estimate (%RSE) ([1]; typical individual 62.5 kg, each compound modelled separately): 1.13 (8.84%) h
CL/F, apparent elimination clearance, population estimate (%RSE) [1, 4]: 2.83 (15.8%) L/h
VC/F, apparent volume of distribution of the central compartment, population estimate (%RSE) [1, 4]: 55.4 (12.4%) L
Correlation (regression slope) of AUC24 with change in methaemoglobin (methaemoglobin levels; [2]): -961 (95% CI: -3904 to 1982) p-value = 0.490 % mHB change per 1 ng·hr/mL
Correlation (regression slope) of CMAX with change in methaemoglobin (methaemoglobin levels; [2]): -3071 (95% CI: -8834 to 2691) p-value = 0.268 % mHB change per 1 ng/mL
Correlation (regression slope) of AUC24 with change in methaemoglobin (methaemoglobin levels; [3]): 1396 (95% CI: -2851 to 5643) p-value = 0.413 % mHB change per 1 ng·hr/mL
Correlation (regression slope) of CMAX with change in methaemoglobin (methaemoglobin levels; [3]): 922 (95% CI: -3823 to 5667) p-value = 0.618 % mHB change per 1 ng/mL
